Reference: patent US20100330604A1, “QUANTIFICATION OF CHANGES IN THE DEGREES OF ORDER OF CELLULAR AND VIRAL MEMBRANES AND APPLICATIONS TO DIAGNOSIS, TREATMENT AND DRUG SCREENING” (priority 2007, published 2010)

Tested on: platelets
Test: Shear Induced Platelet activation (SIPA): high Rf platelet subpopulation
Format: cell-based
Details: pre-incubation of platelets to block actin polymerization

latruncullin B
generation of the high Rf platelet population during the shear treatment: abrogated
